{"sequences": {"note": "By UniProt entry, the sequences of proteins in these tests, tags left out.", "UniProt P48061, whole entry": "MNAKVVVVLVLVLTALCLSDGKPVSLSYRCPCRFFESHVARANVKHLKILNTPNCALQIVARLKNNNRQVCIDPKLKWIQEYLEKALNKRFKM"}, "source": "ChEMBL document CHEMBL3817737", "about": "“Structure-Based Identification of Novel Ligands Targeting Multiple Sites within a Chemokine-G-Protein-Coupled-Receptor Interface” (J Med Chem, 2016)", "key": {"[1]": {"molecular_target": "T1, Stromal cell-derived factor 1 (Homo sapiens, UniProt P48061)", "assay": "Binding affinity to His6-SUMO fusion tagged wild type human [U-15N]CXCL12 expressed in Escherichia coli assessed as induction of chemical shift perturbations to residues at I4/I6 binding site by 2D 1H-15N HMQC NMR spectroscopy"}, "[2]": {"molecular_target": "T1, Stromal cell-derived factor 1", "assay": "Binding affinity to human [U-15N]CXCL12 L36C/A65C dimer mutant expressed in Escherichia coli assessed as induction of chemical shift perturbations at W57 residues by 2D 1H-15N SOFAST HMQC NMR spectroscopy"}}, "note": "Calls of active or inactive are those of the source. The rule behind the calls is not given here.", "data": [{"smiles": "CC(C)O.CCCOc1ccc(C(Nc2ccc(F)cc2)P(=O)(O)O)cc1", "note": "(configuration not stated)", "values": [{"measurement": "Activity", "setting": "[1]", "result": 12.5, "unit": "%"}, {"measurement": "Activity", "setting": "[2]", "result": "inactive"}]}]}
